According to PubChem BioAssay AID651572 (The Scripps Research Institute Molecular Screening Center, 2012):
Only a part is listed here, and it is no random draw. Activity calls are given as the source filed them.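 Rule for the calls: active = inhibition above a per-plate limit, mean inhibition of low control wells plus 3 SD (cut at about 25% in these data); inactive = the rest.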

Amino acid sequences for entries named in this document (tags omitted).
UniProt Q62848, whole entry, looked up: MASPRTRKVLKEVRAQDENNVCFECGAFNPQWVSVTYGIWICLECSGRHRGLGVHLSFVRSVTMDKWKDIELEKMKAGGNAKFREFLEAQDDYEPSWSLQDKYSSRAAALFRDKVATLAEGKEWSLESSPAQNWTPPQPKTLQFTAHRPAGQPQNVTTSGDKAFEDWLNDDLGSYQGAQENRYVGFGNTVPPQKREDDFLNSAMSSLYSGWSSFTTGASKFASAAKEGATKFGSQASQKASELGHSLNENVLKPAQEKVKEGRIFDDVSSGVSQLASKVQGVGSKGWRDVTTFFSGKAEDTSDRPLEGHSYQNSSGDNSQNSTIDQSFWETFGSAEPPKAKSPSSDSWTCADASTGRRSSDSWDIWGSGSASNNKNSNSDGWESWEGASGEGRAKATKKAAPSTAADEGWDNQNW

Molecular target: ADP-ribosylation factor GTPase-activating protein 1 (Rattus norvegicus) (UniProt Q62848)
Assay: blockers of ARFGAP1-stimulated ARF1 GTP hydrolysis – biochemical, fluorescence polarization, GDP tracer, primary screen (AID 651572);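 note: 0% = DMSO wells with enzyme and 100% = wells lacking Arfgap1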
Conditions: GDP FP detection, at 16.5 µM, active compounds read high
How it was run: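 Assay system: Rat Arfgap1 GAP domain (His6, aa 1-136), purified enzyme | Buffer or medium: HEPES 25 mM pH 7.5, NaCl 150 mM, MgCl2, DTT | Schedule: GTP hydrolysis reaction 2 h at 25 °C | Signal: FP of antibody-bound GDP Alexa 633 tracer, ex 620/em 688 nm | Measure: Percent inhibition of Arfgap1-stimulated GTP hydrolysis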

Compound | inhibition
COc1ccc(N)c([N+](=O)[O-])c1[N+](=O)[O-] | inactive: 4.99%
Nc1ccc(CCCCOc2ccccc2)cc1 | inactive: 9.38%
CN(C)C1(CNC(=O)c2ccc(Cl)c(S(N)(=O)=O)c2)CCCCC1 | inactive: 1.8%
O=P(Nc1ccccn1)(c1ccc(Br)cc1)c1ccc(Br)cc1 | inactive: 5.12%
O=P(Nc1nc2ccccc2s1)(c1ccccc1)c1ccccc1 | inactive: 4.09%
C[C@H]1OP(=O)(Oc2ccccc2)[C@H](O)[C@H](O)[C@H]1N=[N+]=[N-] (stereo partly specified) | inactive: 6.38%
CC(=O)NC(SC(=S)N(C)C)C(Cl)(Cl)Cl (stereo unspecified) | inactive: -2.78%
O=[N+]([O-])c1ncn(CCn2cnc([N+](=O)[O-])n2)n1 | inactive: -0.31%
O=[As](O)(c1ccccc1)c1ccc(O)cc1 | inactive: -2.95%
C/C(N)=N\P(=O)(OCc1ccccc1)OCc1ccccc1 | inactive: -4.91%
C(Cc1nn[nH]n1)Cc1nn[nH]n1 | inactive: 3.05%
Nc1ccc([As](=O)(O)c2ccc([N+](=O)[O-])cc2)cc1 | inactive: -4.81%
O=C(OC1CN2CCC1CC2)c1cccc(Cl)c1 (stereo unspecified) | inactive: 1.2%
O=P(Nc1nccs1)(c1ccccc1)c1ccccc1 | inactive: -0.37%
CC(C)C(=O)NC(Sc1ccccc1)C(Cl)(Cl)Cl (stereo unspecified) | inactive: -5.03%
c1nnnn1CCn1cnnn1 | inactive: 1.52%
O=P1(Nc2nc3ccc(Cl)cc3s2)COc2ccccc2O1 (stereo unspecified) | inactive: -17.4%
CCOc1ccc(C2=NCC(CBr)S2)cc1 (stereo unspecified) | inactive: 13.2%
CCc1cc(O)c([N+](=O)[O-])c(C)c1[N+](=O)[O-] | inactive: -8.94%
CC(C)(C)C(=O)NC(Sc1ccccc1)C(Cl)(Cl)Cl (stereo unspecified) | inactive: 2.92%
CC(=O)c1ccc(N2CC2c2ccncc2)cc1 (stereo unspecified) | inactive: -1.07%
N#C/C(=C\c1ccc(N(CCBr)CCBr)cc1)C(N)=O | inactive: -6.53%
COC(=O)C1(C)COP(=O)(NCc2ccccc2)OC1 (stereo unspecified) | inactive: -7.61%
Cc1ccccc1CN(C)C(=O)COC(=O)C(O)(c1ccccc1)c1ccccc1 | inactive: -5.98%
C[C@H]1OP(=O)(Oc2ccccc2)C[C@@H]2O[C@@H]21 (stereo partly specified) | inactive: -7.25%
C[C@@H]1C=CCP(=O)(Oc2ccccc2)O1 (stereo partly specified) | inactive: 2.41%

Compound | inhibition
CC(=O)Nc1ccc([As](=O)(O)O)c(O)c1 | inactive: -10.6%
CC(=O)Nc1ccc(Oc2c([N+](=O)[O-])cc([N+](=O)[O-])cc2[N+](=O)[O-])cc1 | inactive: -5.43%
O=C(NC1CCS(=O)(=O)C1)NP(=S)(Oc1ccccc1)Oc1ccccc1 (stereo unspecified) | inactive: -1.94%
CCNC(=S)/N=C(\N)N[N+](=O)[O-] | inactive: 4.85%
c1ccc(-c2nn[nH]n2)c(-c2nn[nH]n2)c1 | inactive: -2.29%
Cc1ccc(NP(=O)(Oc2cccc(C)c2)Oc2cccc(C)c2)nc1 | inactive: 0.4%
O=P1(N(CCCl)CCCl)OCCC2CCCCN21 (stereo unspecified) | inactive: 4.17%
COC(=O)c1cc2c(s1)N=C(c1ccccc1)N(C)P2(=O)N1CCOCC1 (stereo unspecified) | inactive: -0.47%
CC(=O)NC(SC(=S)N(CC(C)C)CC(C)C)C(Cl)(Cl)Cl (stereo unspecified) | inactive: 1.63%
Cc1ccc(OP(=O)(Nc2ccccn2)Oc2ccc(C)cc2)cc1 | inactive: -4.24%
O=C(OC1CN2CCC1CC2)c1ccccc1 (stereo unspecified) | inactive: -6.06%
CCC(=O)N1C2C3N(C(=O)CC)C1C1N(C(=O)CC)C(C(N1C(=O)CC)N3C(=O)CC)N2C(=O)CC | inactive: 0.2%
CC(NC(=O)COC(=O)C(O)(c1ccccc1)c1ccccc1)c1ccccc1 (stereo unspecified) | inactive: 11.1%
Cc1ccccc1OP(=O)(Nc1ccccn1)Oc1ccccc1C | inactive: 1.91%
O=c1c2cc([N+](=O)[O-])ccc2[nH]c2c([N+](=O)[O-])cc([N+](=O)[O-])cc12 | inactive: 3.04%
CN(C)C(=O)Oc1noc2ccccc12 | inactive: -8.08%
CC(=O)Nc1ccc([As](=O)(O)O)cc1 | inactive: -0.16%
O=C(O)c1ccccc1[As](=O)(O)O | inactive: -5.88%
CCCC1OP(N)(=O)OCC1CC (stereo unspecified) | inactive: 2.55%
O=P(Nc1nc2ccc(Cl)cc2s1)(c1ccccc1)c1ccccc1 | inactive: -4.22%
CN(C)P(=O)(N(C)C)n1c(Nc2ccccc2)nnc1-c1ccccc1 | inactive: 2.32%
Cc1cc(SC(NC(=O)c2ccc(F)cc2)C(Cl)(Cl)Cl)ncn1 (stereo unspecified) | inactive: 7.32%
CCOP(=O)(Nc1ccccc1)OCC | inactive: 3.7%
CN(C(=O)Cc1ccc(Cl)c(Cl)c1)[C@H]1CCCC[C@@H]1N1CCCC1 | inactive: 7.08%
Cc1ccc(NP(=O)(Oc2ccccc2F)Oc2ccccc2F)nc1 | inactive: 8.29%
CCn1c(=O)n(C2CCN(CC3CCCCCCC3)C[C@H]2CO)c2ccccc21 (stereo partly specified) | inactive: -0.31%

Compound | inhibition
CN(C(=O)Cc1ccccc1)C1CC[C@@]2(CCCO2)C[C@@H]1N1CCCC1 (stereo partly specified) | inactive: 5.62%
CCN(N=Nc1nonc1N)c1nonc1N | inactive: 5.14%
Nc1cccc2ccc([As](=O)(O)O)cc12 | inactive: -3.19%
NC(=O)c1cc([N+](=O)[O-])cc([N+](=O)[O-])c1N | inactive: -2.84%
CN(C(=O)Cc1ccc(Cl)c(Cl)c1)[C@H]1CCCC[C@H]1N1CCCC1 | inactive: 5.33%
Cc1ccc(N/C(=N/P(=O)(N2CCOCC2)N2CCOCC2)N2CCOCC2)cc1 | inactive: -4.94%
COc1ccccc1OP(=O)(Nc1ccc(C)cn1)Oc1ccccc1OC | inactive: 1.04%
Cc1ccc(OP(=O)(Nc2nccs2)Oc2ccc(C)cc2)cc1 | inactive: 4.6%
CN1CCCC(OC(=O)C(c2ccccc2)c2ccccc2)C1 (stereo unspecified) | inactive: -2.21%
Clc1ccc(Cl)c(NC2=NCC(CBr)S2)c1 (stereo unspecified) | inactive: 2.72%
Nc1cc(N)c2nonc2c1[N+](=O)[O-] | inactive: -1.11%
CC(C)CC(=O)NC(Sc1ccc(Cl)cc1)C(Cl)(Cl)Cl (stereo unspecified) | inactive: 2.58%
Oc1ccccc1CNc1ccccn1 | inactive: 8.1%
O=C(NC(Sc1ccncn1)C(Cl)(Cl)Cl)c1ccccc1 (stereo unspecified) | inactive: 2.31%
COc1ccc(C2=NCC(CBr)S2)cc1 (stereo unspecified) | inactive: -2.27%
CC(=O)N1C2C3N(C(C)=O)C1C1N(C(C)=O)C(C(N1C(C)=O)N3C(C)=O)N2C(C)=O | inactive: 0.48%
O=[N+]([O-])c1cccc2n[nH]nc12 | inactive: 9.75%
Cc1ccc(NP(=O)(Oc2ccccc2)Oc2ccccc2)nc1 | inactive: -7.38%
O=[N+]([O-])c1cc([N+](=O)[O-])c(CCNc2ccccc2)c([N+](=O)[O-])c1 | inactive: 2.41%
CCc1nc2c(n1)c1c(non1O)c1c2no[n+]1[O-] | inactive: -4.98%
Nc1ccc([As](=O)(O)c2ccc(N)cc2)cc1 | inactive: -5.99%
C[N+]1=C2C=CC=CC=C2SC12C([N+](=O)[O-])=CC([N+](=O)[O-])=C[C-]2[N+](=O)[O-] (stereo unspecified) | inactive: 6.99%
CCN(/C(=N/P(=O)(N1CCOCC1)N1CCOCC1)N1CCOCC1)c1ccc(OC)cc1 | inactive: 7.11%
CC(C)c1nc(Nc2ccccc2)n(P(=O)(N(C)C)N(C)C)n1 | inactive: 3.15%
CC(C)=N/N=C(\N)N[N+](=O)[O-] | inactive: 3.67%
CN(C)C(=O)OCCc1n(C)cc[n+]1C | inactive: -9.85%

Compound | inhibition
CC1CCN(C(=O)Oc2c(Cl)cc(Cl)c3cccnc23)CC1 | inactive: -0.91%
c1cc(-c2nn[nH]n2)ccc1-c1nn[nH]n1 | inactive: 3.38%
O=P1(N(CCCl)CCCl)OCCCS1 (stereo unspecified) | inactive: 11.3%
O=C(Nc1cc([As](=O)(O)O)ccc1O)c1ccccc1 | inactive: -9.03%
CC(C)(C)C(=O)NC(Sc1ccncn1)C(Cl)(Cl)Cl (stereo unspecified) | inactive: 3.5%
O=[N+]([O-])c1ncn(CCn2ncnc2[N+](=O)[O-])n1 | inactive: -5.81%
COC(=O)C1(C)COP(=O)(Nc2ccccc2)OC1 (stereo unspecified) | inactive: -5.32%
O=[N+]([O-])c1cccc(NC2=NCC(CBr)S2)c1 (stereo unspecified) | inactive: -4.49%
O=C(O)CNc1ccc([As](=O)(O)O)cc1 | inactive: 11%
CC1CCNP(=O)(N(CCCl)CCCl)O1 (stereo unspecified) | inactive: -6.13%
O=C(O)C(O)c1ccc(N(CCCl)CCCl)cc1 (stereo unspecified) | inactive: -5%
CCOC(=O)Nc1ccc([As](=O)(O)O)c(O)c1 | inactive: -9.62%
CCCCOc1ccc(C(=O)NCC2(N3CCCCC3)CCCCC2)cc1OC | inactive: -4.2%
Cc1cc(SC(NC(=O)c2ccccc2)C(Cl)(Cl)Cl)nc(C(C)C)n1 (stereo unspecified) | inactive: 11.9%
COP(=O)(OC)N1CC1c1ccccc1 (stereo unspecified) | inactive: 18.7%
CCOC(=O)Nc1cccc([As](=O)(O)O)c1 | inactive: -0.95%
O=[N+]([O-])c1ccc(Nc2ccc(Oc3ccc([N+](=O)[O-])cc3[N+](=O)[O-])cc2)c([N+](=O)[O-])c1 | inactive: -2.74%
Cc1cc(SC(NC=O)C(Cl)(Cl)Cl)ncn1 (stereo unspecified) | inactive: -2.31%
O=P(Nc1ccccn1)(c1cccc2ccccc12)c1cccc2ccccc12 | inactive: 2.21%
COP1(=S)c2c(C)nn(CCC#N)c2N=C(c2ccc(F)cc2)N1C (stereo unspecified) | inactive: 1.51%
COC(=O)C1(C)COP(=O)(N2CCCC2)OC1 (stereo unspecified) | inactive: 0.63%
O=C(COc1ccccc1)OC1CN2CCC1CC2 (stereo unspecified) | inactive: 7.73%
O=C(Nc1ccncc1[N+](=O)[O-])c1ccc([N+](=O)[O-])cc1[N+](=O)[O-] | inactive: -6.76%
